Tested on: A549 cells
Test: In vitro cell proliferation assay, Example 4 (CellTiter-Glo, 2 days)
Type: cell-based, human
Conditions: within the testing concentration range; antibodies alone = reduced antibody with linker, no agent
Procedure: In vitro cell proliferation assays. EDCs of the invention and comparative compounds were assayed in three cancer cell lines to confirm cytotoxic activity. All cell lines were maintained in complete media [RPMI medium 1640 supplemented with 10% (wt/vol) fetal bovine serum and Gentamycin ([…])]. Cells were plated at a density of 5,000 cells per well of each 96-well black tissue culture treated microtiter plate in 95 ul complete media, then were grown for 24 hour at 37° C. with 7% CO2 in a humidified incubator before agent/conjugate addition. In a separate 96-well plate, agent (in DMSO) and antibody conjugate (in PBS) stocks were serially diluted in complete media at 20× final working concentrations, and 5 ul added to the cells used in the assay. Doxorubicin was used as the control to monitor the behavior of the cell lines used. Cells were incubated with the agent/conjugate for 2 days before luminescence reading. Cell viability testing used the CellTiter-Glo luminescent cell viability assay (Promega, Madison, Wis.).

Erb-CEN09-104
A549 cell cytotoxicity (in words): not active
